The entries are a selection whose mix differs from that of the whole data set. Calls of active or inactive are those of the source. How the source made its calls: active means hit-call score of the fitted dose curve at least 0.9, where 1 is the maximum; inactive means score below 0.9.
Columns and labels:
[1] = read-out: Interferon-gamma inducible Protein 10 (IP10), CXCL10 (gene 3627); assay: BSK_hDFCGF_IP10: BioMAP Diversity Plus: hDFCGF Assay for Interferon-gamma inducible Protein 10 (IP10) Biomarker Activity (AID 2283053); conditions: actives raise or lower the signal; primary human foreskin fibroblasts
Method in brief: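 IP-10 levels, quantified by ELISA, are taken from human foreskin fibroblast cultures 24 h after chemical treatment, with DMSO serving as negative control and baseline for bidirectional analysis.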

[2] = read-out: Urokinase-type plasminogen activator receptor (uPAR), PLAUR (gene 5329); assay: BSK_CASM3C_uPAR: BioMAP Diversity Plus: CASM3C Assay for Urokinase-type plasminogen activator receptor (uPAR) Biomarker Activity (AID 2283054); conditions: actives raise or lower the signal; primary human coronary artery smooth muscle cells;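 further: cell-surface uPAR protein level quantified by ELISA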
[3] = read-out: Vascular cell adhesion molecule 1 (VCAM1), VCAM1 (gene 7412); assay: BSK_CASM3C_VCAM1: BioMAP Diversity Plus: CASM3C Assay for Vascular cell adhesion molecule 1 (VCAM1) Biomarker Activity (AID 2283055); conditions: actives raise or lower the signal; primary human coronary artery smooth muscle cells;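 further: VCAM-1 protein level quantified by ELISA on the cells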
[4] = read-out: Collagen III, COL3A1 (gene 1281); assay: BSK_hDFCGF_CollagenIII: BioMAP Diversity Plus: hDFCGF Assay for Collagen III Biomarker Activity (AID 2283056); conditions: actives raise or lower the signal; primary human foreskin fibroblasts
Method in brief: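 ELISA readout of Collagen III in human dermal (foreskin) fibroblasts, taken 24 h post-treatment. Gain or loss relative to DMSO vehicle fitted in both directions.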

[5] = read-out: Epidermal growth factor receptor (EGFR), EGFR (gene 1956); assay: BSK_hDFCGF_EGFR: BioMAP Diversity Plus: hDFCGF Assay for Epidermal growth factor receptor (EGFR) Biomarker Activity (AID 2283057); conditions: actives raise or lower the signal; primary human foreskin fibroblasts
Method in brief: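 Measured by ELISA: EGFR levels on primary human foreskin fibroblasts 24 h after chemical treatment, analysed relative to DMSO with bidirectional fitting.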

[6] = read-out: Interleukin-8 (IL8), CXCL8 (gene 3576); assay: BSK_hDFCGF_IL8: BioMAP Diversity Plus: hDFCGF Assay for Interleukin-8 (IL8) Biomarker Activity (AID 2283058); conditions: actives raise or lower the signal; primary human foreskin fibroblasts
Method in brief: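 IL-8 levels read by ELISA at 24 hours after dosing human skin fibroblast cultures. Parallel SRB staining assessed overt cytotoxicity, and gain or loss of signal was fitted against DMSO control.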

[7] = BSK_hDFCGF_Proliferation: Cell Proliferation Assessment in the BioMAP Diversity Plus: hDFCGF Assay (AID 2283059); conditions: primary human foreskin fibroblasts;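 further: curves fitted for both rise and fall of signal versus DMSO baseline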
Method in brief: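 Primary human foreskin fibroblasts, sub-confluent; […]; 10% TCA fix, 0.1% SRB stain, A560 total protein. Gain/loss fitted bidirectionally vs DMSO control.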

[8] = read-out: Macrophage colony-stimulating factor (MCSF), CSF1 (gene 1435); assay: BSK_hDFCGF_MCSF: BioMAP Diversity Plus: hDFCGF Assay for Macrophage colony-stimulating factor (MCSF) Biomarker Activity (AID 2283060); conditions: actives raise or lower the signal; primary human foreskin fibroblasts
Method in brief: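 M-CSF levels read by ELISA at 24 h post-dosing in human skin fibroblasts. Parallel cultures stained with SRB assessed cytotoxicity at the same time point; response fitted in both directions against the DMSO baseline.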

[9] = BSK_hDFCGF_SRB: Viability Assessment in the BioMAP Diversity Plus: hDFCGF Assay (AID 2283061); conditions: primary human foreskin fibroblasts;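 further: cells exposed to compound for 24 h before the read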
Method in brief: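 Viability was read as total protein: after 10% TCA fixation, wells were stained with 0.1% sulforhodamine B and read at 560 nm. Primary human foreskin fibroblasts were dosed for 24 h, with bidirectional fitting versus DMSO.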

[10] = read-out: TIMP metallopeptidase inhibitor 1 (TIMP1), TIMP1 (gene 7076); assay: BSK_hDFCGF_TIMP1: BioMAP Diversity Plus: hDFCGF Assay for TIMP metallopeptidase inhibitor 1 (TIMP1) Biomarker Activity (AID 2283062); conditions: actives raise or lower the signal; primary human foreskin fibroblasts
Method in brief: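 TIMP-1 measured by ELISA 24 h after chemical dosing of primary human skin fibroblasts, with gain or loss fitted relative to DMSO. Parallel SRB staining (560 nm) monitored overt cytotoxicity.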

[11] = read-out: Monokine induced gamma interferon (MIG), CXCL9 (gene 4283); assay: BSK_hDFCGF_MIG: BioMAP Diversity Plus: hDFCGF Assay for Monokine induced gamma interferon (MIG) Biomarker Activity (AID 2283063); conditions: actives raise or lower the signal; primary human foreskin fibroblasts
Method in brief: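 Human primary foreskin fibroblasts in the hDFCGF system, exposed to test chemical for 24 h; MIG measured by ELISA. Bidirectional curve fitting against DMSO negative control as activity baseline.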

[12] = read-out: Matrix Metallopeptidase 1 (MMP1), MMP1 (gene 4312); assay: BSK_hDFCGF_MMP1: BioMAP Diversity Plus: hDFCGF Assay for Matrix Metallopeptidase 1 (MMP1) Biomarker Activity (AID 2283064); conditions: actives raise or lower the signal; primary human foreskin fibroblasts
Method in brief: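 hDFCGF primary fibroblasts (human foreskin); chemical added; 24 h; MMP1 by ELISA; bidirectional fit vs DMSO.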

[13] = read-out: Vascular cell adhesion molecule 1 (VCAM1), VCAM1 (gene 7412); assay: BSK_hDFCGF_VCAM1: BioMAP Diversity Plus: hDFCGF Assay for Vascular cell adhesion molecule 1 (VCAM1) Biomarker Activity (AID 2283065); conditions: actives raise or lower the signal; primary human foreskin fibroblasts;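 on AC50: VCAM-1 protein level quantified by ELISA after 24 h chemical exposure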
Method in brief: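 ELISA readout of VCAM-1 on human dermal fibroblast primary cultures, 24 h after chemical exposure. Gain or loss of signal fitted in both directions against DMSO baseline.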

[14] = read-out: Plasminogen activator inhibitor-1 (PAI1), SERPINE1 (gene 5054); assay: BSK_hDFCGF_PAI1: BioMAP Diversity Plus: hDFCGF Assay for Plasminogen activator inhibitor-1 (PAI1) Biomarker Activity (AID 2283066); conditions: actives raise or lower the signal; primary human foreskin fibroblasts
Method in brief: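 PAI-1 levels, determined by ELISA, served as the endpoint in human foreskin fibroblast cultures exposed to compound for 24 h, with DMSO as baseline.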

[15] = read-out: Intercellular Adhesion Molecule 1 (ICAM1), ICAM1 (gene 3383); assay: BSK_KF3CT_ICAM1: BioMAP Diversity Plus: KF3CT Assay for Intercellular Adhesion Molecule 1 (ICAM1) Biomarker Activity (AID 2283067); conditions: actives raise or lower the signal; primary human keratinocytes with fibroblasts
Method in brief: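 Cell-surface ICAM-1 was measured by ELISA 24 h after dosing primary human skin keratinocytes co-cultured with fibroblasts. Parallel SRB staining tracked overt cytotoxicity. Gain or loss of signal was fitted relative to DMSO.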

[16] = read-out: Interferon-gamma inducible Protein 10 (IP10), CXCL10 (gene 3627); assay: BSK_KF3CT_IP10: BioMAP Diversity Plus: KF3CT Assay for Interferon-gamma inducible Protein 10 (IP10) Biomarker Activity (AID 2283068); conditions: actives raise or lower the signal; primary human keratinocytes with fibroblasts
Method in brief: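 In a primary skin co-culture of keratinocytes and fibroblasts, IP-10 is quantified by ELISA at 24 h after dosing. SRB staining of parallel wells monitors overt toxicity. Curves are fitted both directions against DMSO.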

[17] = BSK_KF3CT_SRB: Viability Assessment in the BioMAP Diversity Plus: KF3CT Assay (AID 2283069); conditions: primary human keratinocytes with fibroblasts;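 further: total protein by sulforhodamine B staining as a cytotoxicity measure; read 24 h after compound addition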
Method in brief: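 Keratinocytes co-cultured with foreskin fibroblasts (human primary); chemical added, 24 h; fix 10% TCA, stain 0.1% SRB, A560. Bidirectional fit vs DMSO.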

[18] = read-out: Interleukin-1 alpha (IL1a), IL1A (gene 3552); assay: BSK_KF3CT_IL1a: BioMAP Diversity Plus: KF3CT Assay for Interleukin-1 alpha (IL1a) Biomarker Activity (AID 2283070); conditions: actives raise or lower the signal; primary human keratinocytes with fibroblasts
Method in brief: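 Chemicals were dosed onto co-cultured human keratinocytes and foreskin fibroblasts, IL-1a was quantified by ELISA at 24 h, and activity was fitted in both directions relative to DMSO controls.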

[19] = read-out: TIMP metallopeptidase inhibitor 2 (TIMP2), TIMP2 (gene 7077); assay: BSK_KF3CT_TIMP2: BioMAP Diversity Plus: KF3CT Assay for TIMP metallopeptidase inhibitor 2 (TIMP2) Biomarker Activity (AID 2283071); conditions: actives raise or lower the signal; primary human keratinocytes with fibroblasts
Method in brief: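 Keratinocyte–fibroblast co-culture, 24 h exposure; TIMP-2 ELISA, DMSO-normalised bidirectional fit. Parallel SRB (0.1%, TCA-fixed, 560 nm) total-protein staining gauges cytotoxicity.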

[20] = read-out: Transforming growth factor beta 1 (TGFb1), TGFB1 (gene 7040); assay: BSK_KF3CT_TGFb1: BioMAP Diversity Plus: KF3CT Assay for Transforming growth factor beta 1 (TGFb1) Biomarker Activity (AID 2283072); conditions: actives raise or lower the signal; primary human keratinocytes with fibroblasts
Method in brief: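 Signal changes in either direction, relative to DMSO, define activity here. TGF-b1 is read by ELISA from a human keratinocyte-fibroblast co-culture 24 h post-dose.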

Measured: AC50

Cc1ccc([N+](=O)[O-])c([N+](=O)[O-])c1
active: [3] 5.02 µM | [7] 15.6 µM | [8] 6.46 µM | [10] 5.54 µM | [11] 20 µM | [12] 3.97 µM | [13] 12.7 µM | [14] 3.97 µM
inactive: all other assays above

Cc1c([N+](=O)[O-])cccc1[N+](=O)[O-]
inactive: all assays above

O=[N+]([O-])c1cccc([N+](=O)[O-])c1
inactive: all assays above

Cc1ccc([N+](=O)[O-])cc1[N+](=O)[O-]
inactive: all assays above

Cc1cccc([N+](=O)[O-])c1[N+](=O)[O-]
active: [1] 14.3 µM | [7] 14.3 µM | [8] 11.1 µM | [13] 9.36 µM
inactive: all other assays above

CC(C)OP(C)(=O)OC(C)C
active: [7] 20 µM
inactive: all other assays above

— PubChem BioAssay (EPA / NIEHS)
